Data reported in patent US20240083933A1, “DISACCHARIDES FOR TREATING BONE DISEASES” (UNIVERSITE DE PICARDIE JULES VERNE, priority 2020, published 2024).

Assays:
[1] = tested on: HOb cells; assay: Calcium assay (pro-calcifying activity, mineralization) on human primary osteoblastic cells; type: cell-based; conditions: 14 days, mineralizing conditions, BMP-2 100 ng/ml
Procedure: For all experiments, a mouse pre-osteoblastic cell line (MC3T3-E1, ATCC) and human primary osteoblastic cells (HOb, Promocell) were used. The mouse pre-osteoblastic cells were cultured in 75 cm^2 flasks, containing 15 mL of α-MEM medium (M4526, SIGMA) and 10% fetal calf serum (FCS), containing 1% Penicillin/Streptomycin antibiotics and 1% glutamine. Similarly, human HOb cells were cultured in 75 cm 2 flasks containing 15 mL of proliferation medium (Human Osteoblast Proliferation Medium, PromoCell). The cells are maintained in the oven at 37° C., with 5% CO2 and 90% humidity. The medium was changed every three days.
MC3T3-E1 cells were seeded in 6-well plates at 63,700 cells/well to be treated in order to extract RNA or for alkaline phosphatase enzymatic activity assay and in 48-well plates for the calcium assay at 5250 cells/well. The HOb cells were seeded at 182,000 cells/well in 6-well plates for the extraction of RNA or for the alkaline phosphatase enzymatic activity assay; at 15,000 cells/well in 48-well plates for the calcium assay; at 10,000 cells/well in 48-well plates for the MTT test or the WST-1 test and at 100,000 cells/well in 6-well plates for the protein extraction or for the fluorescence.
In order to induce the mineralization, the MC3T3-E1 cells were treated with α-MEM medium containing 5% FCS to which 10 mM of β-glycerophosphate and 50 μg/mL of ascorbic acid are added. […]

[2] = tested on: MC3T3-E1 cells; assay: Alkaline phosphatase (ALP) enzymatic activity assay, MC3T3-E1; type: cell-based, mouse; conditions: MC3T3-E1, 13 days post-treatment, BMP-2 100 ng/ml
Source text: (§1) ALP is an enzyme synthesized by osteoblasts. It hydrolyses phosphoric esters which inhibit the mineralization by releasing a hydroxyl group and a phosphate. The osteoblasts produce matrix vesicles, reservoirs of alkaline phosphatases and ions, which, when released into the extracellular medium, would initiate the mineralization of the osteoid tissue by promoting the local concentrations of calcium ions and phosphates. Cells have been seeded in 6-well plates at 63700 cells/well for MC3T3-E1 and at 182000 cells/well for HOb. The assay has been performed on a 48-well plate after 13 days of treatment for MC3T3-Et cells and 7 days of treatment for the HOb cells using the BioVision Alkaline Phosphatase activity colorimetric assay Kit (ALP Assay Buffer, pNPP tablets, Alkaline phosphatase enzyme, Stop solution).
(§2) After the PBS rinses, 50 μl of ALP Assay Buffer were added to the wells, the bottom of the wells was scraped and then the 50 μl were taken. A centrifugation for 3 minutes at 13000 G was carried out to remove the insoluble material. […] The optical density was measured at 405 nm.
(§3) After the ALP enzymatic activity assay, a protein assay was performed in order to normalize the results of the ALP assay depending on the number of proteins. […] The optical density was measured at 565 nm to determine the amount of proteins.

[3] = tested on: HOb cells; assay: Alkaline phosphatase (ALP) enzymatic activity assay, HOb; type: cell-based, human; conditions: 7 days post-treatment, BMP-2 100 ng/ml
Source text: as §1, §2, §3

[4] = tested on: bone defects in the skull of rats; assay: Cranial bone defect model with implanted support; type: in vivo; parameters: key to BMD / BV/TV: =: no difference; N/A: not applicable; *p ≤ 0.05; **p ≤ 0.01; ***p ≤ 0.001
Procedure: The Sprague-Dawley rats are provided by Janvier Labs (Le Genest-Saint-Isle, France) and housed in the PLATAN animal facility of the UPJV. The rats were maintained under a 12-hour day-night cycle, at a temperature of 22±2° C. and 50% humidity.
In order to assess the osteoinductive capacity of the disaccharide via the acceleration of the phenomenon of bone reconstruction and to determine the concentration of the optimal DP2 molecule, and the nature of the most adapted support under the physiological conditions of the fracture consolidation operation (inflammatory reaction, cellular activity), 2 bone defects were made in the skull of rats.
Three different types of supports were tested and two different concentrations of DP2. For this, 102 8-week-old male Sprague-Dawley rats were divided into 12 experimental groups such as: • Support 1: Bioactive calcium phosphate bone substitute (MBCP: Biomaltante, Vigneux-de-Bretagne, France) • Group 1 (S1L1): MBCP support only • Group 2 (S1L2): MBCP support+DP2 [3 mM] • Group 3 (S1L3): MBCP support+DP2 [9 mM] • Group 4 (S1L4): MBCP support+BMP-2 • Support 2: bone substitute consisting of the mineral portion of a bone of bovine origin (Bio-oss; Roissy-en-France; France) • Group 5 (S2L5): Bio-oss support only • Group 6 (S2L6): Bio-oss Support+DP2 [3 mM] • Group 7 (S2L7): Bio-oss support+DP2 [9 mM] • Group 8 (S2L8): Bio-oss support+BMP-2 • Support 3: Type I collagen of the bovine Achilles tendon (Sigma) • Group 9 (S3L9): Collagen support only • Group 10 (S3L10): Collagen support+DP2 [9 mM] • Group 11 (S3L11): Collagen support+DP2 [9 mM] • Group 12 (S3L12): Collagen support+BMP-2
In order to reduce the number of used rats, two bone defects were made per rat; one defect was left blank and was used as an internal control for each rat. Thus, the support-only group is considered the control of the experiment. DP2 and BMP-2 were diluted in sterile saline solution and then mixed with the support and placed in the cranial defect. For the support-only condition, the latter is mixed with sterile saline solution.
After being assigned to one of the 12 groups shown above, the rat was anesthetized using IsoVet (isoflurane) in the mask (5% in the induction and 2 to 3% in maintenance dose). After 5 min, a nociception test was performed by pinching the paw or tail of the animal to check the effectiveness of the anesthesia. On the workstation, a shaving and a disinfection with vetedine were then carried out next to the incision.
A local anesthesia was also carried out with 7 mg/kg of 2% lidocaine (20 mg/mL) diluted to 5 mg/ml.
On the workstation, the incision of the skin with a 15 blade cold scalpel along the midline was performed, followed by the detachment of the subcutaneous tissues. Then, the incision along the midline and the lifting and lateral displacement of the periosteum were made. […] Saline solution was used during the milling steps. The implantation of the support, depending on the group, on the left side was made; the right side, without support, was used as a control to assess the effect of the lesion and the natural repair processes without the presence of support. The periosteum was put back in place and sutured with 7/0 skin suture. The skin was also put back in place and closed with 4/0 skin suture.
The rat was injected with buprenorphine at a dose of 0.05 mg/kg subcutaneously as an analgesic. After awakening, the rat was returned to its conventional housing conditions, by putting 1 rat per cage. The animals were supervised daily and animal welfare monitoring was carried out.

[5] = Bio-oss support + BMP-2 vs Bio-oss only, D 14
[6] = Bio-oss support + BMP-2 vs Bio-oss only, D 29
[7] = Bio-oss support + BMP-2 vs Bio-oss only, D 63
[8] = Bio-oss support + BMP-2 vs Bio-oss only, D 91
[9] = Collagen support + BMP-2 vs Collagen only, D 14
[10] = Collagen support + BMP-2 vs Collagen only, D 29
[11] = Collagen support + BMP-2 vs Collagen only, D 63
[12] = Collagen support + BMP-2 vs Collagen only, D 91
[13] = MBCP support + BMP-2 vs MBCP only, D 14
[14] = MBCP support + BMP-2 vs MBCP only, D 29
[15] = MBCP support + BMP-2 vs MBCP only, D 63
[16] = MBCP support + BMP-2 vs MBCP only, D 91

BMP-2: bone morphogenic protein, osteoinductive endogenous glycoprotein; marketed as Inductos and Infuse Bone Graft (BMP2)
percentage of mineralization of the HOb cells [1]: 214.153±37.938% | ALP enzymatic activity relative to the mineralized medium alone (100%) [2]: 307.645±30.440% | ALP enzymatic activity relative to the mineralized medium alone (100%) [3]: 262.567±46.207% | BMD [4, 5]: = | BV/TV [4, 5]: = | BMD [4, 6]: = | BV/TV [4, 6]: = | BMD [4, 7]: = | BV/TV [4, 7]: = | BMD [4, 8]: = | BV/TV [4, 8]: = | BMD [4, 9]: = | BV/TV [4, 9]: = | BMD [4, 10]: = | BV/TV [4, 10]: = | BMD [4, 11]: = | BV/TV [4, 11]: = | BMD [4, 12]: = | BV/TV [4, 12]: = | BMD [4, 13]: = | BV/TV [4, 13]: = | BMD [4, 14]: ↑* | BV/TV [4, 14]: = | BMD [4, 15]: = | BV/TV [4, 15]: = | BMD [4, 16]: ↑* | BV/TV [4, 16]: = | heterotopic bone formation ([4]; MBCP+BMP-2 group): forms heterotopic bone over time | continuous bone repair between the old bone and the newly formed bone ([4]; collagen support): does not form a continuous bone repair
